Results: patent publication US20130239239A1, “LMCD1 CANCER MARKERS AND METHODS FOR THEIR USE” (Academia Sinica, priority 2012, published 2013)

Test system: LMCD1 transfectants in SK-Hep1 cells
Test: Wound healing assay in LMCD1 stable transfectants of SK-Hep1 cells
Settings: 25 μM; mock and wtLMCD1 cells; 6 h pre-treatment, drug present during migration

CCN(CC)CCCC(C)Nc1nc(C)cc(Nc2ccc3nc(C)cc(N)c3c2)n1 (stereo not shown) [NSC23766]
migration inhibition (wound closure): 12.1˜16.4%
